In patent US9453017B2, “Antiviral therapies with phospholipase D inhibitors” (Vanderbilt University, priority 2011, dated 2016) one finds IC50 data, which are given here for 1 compound.

By IC50 is commonly meant the concentration at which inhibition is half-maximal.

Each structure is given as a SMILES string.

For this assay, the target named is PLD2 (Homo sapiens (Human), UniProt O14939). The conditions noted are these: read-out: PLD2** (IC50); In vitro enzyme assay.

Turning to `O=C(NCCN1CCC2(CC1)C(=O)NCN2c1cccc(F)c1)c1ccc2ccccc2c1` [No. 1, N-(2-(1-(3-fluorophenyl)-4-oxo-1,3,8-triazaspiro[4.5]decan-8-yl)ethyl)-2-naphthamide], the 50% inhibitory concentration (IC50) came to 100 nM.
